Values quoted from earlier work as cited in PubChem BioAssay AID977611 (Shanghai Institute of Organic Chemistry, 2012).
One block for each compound: values may come before it.

Legend:
Assay in all cases: PubChem AID 977611
[1] = biological target: Protease(Q7K/K41R/V64I/V82T/I84V); settings: PDB protein-ligand complexes, literature Kd; protein: Protease(Q7K/K41R/V64I/V82T/I84V); PDB entry 3EL5
[2] = biological target: Protease(Q7K mutation); settings: PDB protein-ligand complexes, literature Kd; protein: Protease(Q7K mutation); PDB entry 3EL1
[3] = biological target: Protease(Q7K/L10I/G48V/I54V/V64I/V82A); settings: PDB protein-ligand complexes, literature Kd, protein: Protease(Q7K/L10I/G48V/I54V/V64I/V82A)
[4] = biological target: Protease(Q7K/V64I/V82T/I84V); settings: PDB protein-ligand complexes, literature Kd; protein: Protease(Q7K/V64I/V82T/I84V); PDB entry 3EL4
[5] = biological target: Protease(L10I/G48V/I54V/V64I/V82A); settings: PDB protein-ligand complexes, literature Kd; protein: Protease(L10I/G48V/I54V/V64I/V82A); PDB entry 3EKP
[6] = biological target: Protease(Q7K,V64I mutation); settings: PDB protein-ligand complexes, literature Kd, protein: Protease(Q7K,V64I mutation)
[7] = biological target: Protease(Q7K/V82T/I84V); settings: PDB protein-ligand complexes, literature Kd; protein: Protease(Q7K/V82T/I84V); PDB entry 3EL9
[8] = biological target: Protease(Q7K, V64I mutation); settings: PDB protein-ligand complexes, literature Kd; protein: Protease(Q7K, V64I mutation); PDB entry 3EKX

SMILES: CC(C)(C)NC(=O)[C@@H]1C[C@@H]2CCCC[C@@H]2CN1C[C@@H](O)[C@H](Cc1ccccc1)NC(=O)[C@H](CC(N)=O)NC(=O)c1ccc2ccccc2n1
Kd ([3]; PDB entry 3EKQ): 176 nM
Kd [4]: 67.4 nM

SMILES: CC(C)CN(C[C@@H](O)[C@H](Cc1ccccc1)NC(=O)O[C@H]1CCOC1)S(=O)(=O)c1ccc(N)cc1
Kd [5]: 1.3 nM
Kd ([6]; PDB entry 3EKV): 0.39 nM

SMILES: CC1C(=O)C=CC=C1C(=O)N[C@@H](CSc1ccccc1)[C@H](O)CN1C[C@H]2CCCC[C@H]2C[C@H]1C(=O)NC(C)(C)C (stereo partly specified)
Kd [8]: 0.39 nM
Kd ([3]; PDB entry 3EL0): 34.1 nM

Now from value to compound:

Kd [1]: 18.9 nM
SMILES: Cc1c(O)cccc1C(=O)N[C@@H](CSc1ccccc1)[C@H](O)CN1C[C@H]2CCCC[C@H]2C[C@H]1C(=O)NC(C)(C)C

Kd [2]: 0.23 nM
SMILES: COC(=O)NC(C(=O)N[C@@H](Cc1ccccc1)[C@@H](O)CN(Cc1ccc(-c2ccccn2)cc1)NC(=O)[C@@H](NC(=O)OC)C(C)(C)C)C(C)(C)C (stereo partly specified)

Kd ([6]; PDB entry 3EKY): 0.23 nM
Kd ([3]; PDB entry 3EKW): 10.9 nM
Kd [7]: 4 nM
SMILES: COC(=O)N[C@H](C(=O)N[C@@H](Cc1ccccc1)[C@@H](O)CN(Cc1ccc(-c2ccccn2)cc1)NC(=O)[C@@H](NC(=O)OC)C(C)(C)C)C(C)(C)C
